Source: ChEMBL document CHEMBL4420070, “6-6 Fused Bicyclic Heteroaryl Compounds and their Use as LATS Inhibitors” (2018)

By UniProt entry, the sequences of proteins in these tests, tags left out. Where a name states a change or a piece, a line headed by the entry shows the natural chain unless it says otherwise.
UniProt Q9NRM7: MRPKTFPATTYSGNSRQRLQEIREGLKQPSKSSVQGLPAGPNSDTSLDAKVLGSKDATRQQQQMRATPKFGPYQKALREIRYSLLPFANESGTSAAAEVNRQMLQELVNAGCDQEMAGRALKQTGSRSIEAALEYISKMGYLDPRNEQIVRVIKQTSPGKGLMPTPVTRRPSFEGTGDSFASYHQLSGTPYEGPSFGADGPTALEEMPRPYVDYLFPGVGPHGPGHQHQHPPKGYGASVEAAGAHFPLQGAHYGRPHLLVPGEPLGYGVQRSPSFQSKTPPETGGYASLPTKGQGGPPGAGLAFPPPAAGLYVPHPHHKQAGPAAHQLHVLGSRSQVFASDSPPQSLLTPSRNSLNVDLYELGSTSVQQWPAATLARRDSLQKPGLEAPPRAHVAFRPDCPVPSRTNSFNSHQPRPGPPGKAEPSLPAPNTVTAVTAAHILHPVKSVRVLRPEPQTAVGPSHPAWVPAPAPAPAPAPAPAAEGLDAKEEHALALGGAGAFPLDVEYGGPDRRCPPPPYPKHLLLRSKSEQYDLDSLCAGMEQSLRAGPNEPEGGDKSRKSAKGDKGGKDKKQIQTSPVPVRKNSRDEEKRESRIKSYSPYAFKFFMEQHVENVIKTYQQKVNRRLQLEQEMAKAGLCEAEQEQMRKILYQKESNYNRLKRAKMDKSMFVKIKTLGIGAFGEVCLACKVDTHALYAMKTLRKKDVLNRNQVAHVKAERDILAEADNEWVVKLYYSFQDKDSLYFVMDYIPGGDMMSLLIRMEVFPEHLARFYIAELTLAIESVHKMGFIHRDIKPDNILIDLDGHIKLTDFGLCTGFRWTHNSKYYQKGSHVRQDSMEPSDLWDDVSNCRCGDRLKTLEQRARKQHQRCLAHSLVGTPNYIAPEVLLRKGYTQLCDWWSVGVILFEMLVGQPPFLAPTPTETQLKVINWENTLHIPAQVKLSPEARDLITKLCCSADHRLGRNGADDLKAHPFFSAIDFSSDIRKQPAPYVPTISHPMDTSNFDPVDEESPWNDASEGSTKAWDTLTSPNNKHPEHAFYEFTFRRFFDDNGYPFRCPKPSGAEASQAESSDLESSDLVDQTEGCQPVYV
UniProt O95835: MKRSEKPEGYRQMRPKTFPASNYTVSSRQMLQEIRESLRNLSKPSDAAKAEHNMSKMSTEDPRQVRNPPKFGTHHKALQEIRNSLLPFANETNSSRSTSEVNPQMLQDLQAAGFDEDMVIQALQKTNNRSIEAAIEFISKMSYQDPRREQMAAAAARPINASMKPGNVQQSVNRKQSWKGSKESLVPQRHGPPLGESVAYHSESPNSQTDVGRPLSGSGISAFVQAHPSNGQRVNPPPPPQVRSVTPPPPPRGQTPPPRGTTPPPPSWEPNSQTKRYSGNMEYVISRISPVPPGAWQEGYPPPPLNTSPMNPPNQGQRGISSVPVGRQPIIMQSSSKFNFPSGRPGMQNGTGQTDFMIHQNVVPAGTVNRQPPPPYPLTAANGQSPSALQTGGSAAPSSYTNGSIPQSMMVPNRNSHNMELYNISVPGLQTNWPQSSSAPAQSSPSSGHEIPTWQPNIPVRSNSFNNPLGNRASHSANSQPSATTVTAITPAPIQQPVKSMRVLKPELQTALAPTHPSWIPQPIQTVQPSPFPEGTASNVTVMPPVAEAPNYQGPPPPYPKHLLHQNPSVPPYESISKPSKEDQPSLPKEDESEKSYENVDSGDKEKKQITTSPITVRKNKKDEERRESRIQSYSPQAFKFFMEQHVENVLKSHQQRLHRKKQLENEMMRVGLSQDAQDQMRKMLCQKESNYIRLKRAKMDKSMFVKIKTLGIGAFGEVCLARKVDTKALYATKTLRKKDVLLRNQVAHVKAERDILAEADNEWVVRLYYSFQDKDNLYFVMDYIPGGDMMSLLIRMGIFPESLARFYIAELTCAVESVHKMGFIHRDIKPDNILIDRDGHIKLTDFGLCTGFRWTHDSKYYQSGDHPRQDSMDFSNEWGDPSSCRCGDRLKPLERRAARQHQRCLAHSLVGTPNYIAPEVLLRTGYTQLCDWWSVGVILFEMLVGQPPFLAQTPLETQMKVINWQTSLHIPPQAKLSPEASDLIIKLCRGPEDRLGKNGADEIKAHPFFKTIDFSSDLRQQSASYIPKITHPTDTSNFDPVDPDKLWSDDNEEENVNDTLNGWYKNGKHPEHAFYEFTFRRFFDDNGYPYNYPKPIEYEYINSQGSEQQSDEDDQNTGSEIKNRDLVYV

Columns and labels:
[1] = target: T1, Serine/threonine-protein kinase LATS (Homo sapiens) (UniProt Q9NRM7+O95835); test: Inhibition of LATS in human corneal endothelium cells assessed as induction of cell expansion by measuring cell density at 10 uM by Sytox orange dye based epifluorescence microscopy
[2] = target: T1, Serine/threonine-protein kinase LATS (Homo sapiens); test: Inhibition of LATS in human limbal epithelial cells assessed as induction of limbal stem cell expansion by measuring expansion factor ratio at 10 uM measured after 2 weeks by p63alpha expression detection based immunohistochemistry relative to control; set-up: scale not given: the % may be the effect or the level left
[3] = target: T1, Serine/threonine-protein kinase LATS (Homo sapiens); test: Inhibition of LATS in human limbal epithelial cells assessed as induction of cell differentiation into corneal epithelial cells by measuring keratin-12 expression at 10 uM incubated for 8 to 10 days followed by medium change to DMEM medium without serum and compound for further incubation for 4 to 8 days by confocal microscopy; format: cell-based

CC(C)(COCCO)Nc1nc(-c2ccncc2)nc2cnccc12
Activity [1]: 1120 /mm2 | Activity [2]: 57 to 97%

CC(C)(O)COCC(C)(C)Nc1nc(-c2ccncc2)nc2cnccc12
inhibition [3]: Active | Activity [1]: 4230 /mm2 | Activity [2]: 57 to 97%

Calls of active or inactive are those of the source. The rule behind the calls is not given here.
